# scFv variants of Ab-14 (light chain) against a SARS-CoV-2 spike peptide

From the AlphaSeq antibody data of Li et al. 2023 (doi:10.1038/s41467-023-39022-2), copy in the FLAb collection.

All variants were tested on one target, the spike HR2 peptide PDVDLGDISGINAS (SARS-CoV-2).

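Designed CDR sequences, proposed from the first random library and measured here. Group labels follow the data file (Ctrl: baseline library sampled from a position-specific scoring matrix, with some repeated check sequences; Rand: our label for a block that the file lists under HC and that is probably the random mutants of the ten best first-round binders; GP: Gaussian process model; HC: hill climbing; Gen: genetic algorithm; Gibbs: Gibbs sampling; a sequence that several methods proposed may carry one label only). The scFvs were displayed on barcoded MATa yeast, the peptide on MATalpha yeast. Pairs that bind mate more often; barcode pairs of the diploids are counted by sequencing. A regression on co-assayed BCL2-family reference pairs converts the normalised counts of each replicate to an apparent Kd. Mating was done six times.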

Parent scFv Ab-14: VH joined to VL by three GGGGS repeats. Changes lie in the light chain CDRs alone.
VH: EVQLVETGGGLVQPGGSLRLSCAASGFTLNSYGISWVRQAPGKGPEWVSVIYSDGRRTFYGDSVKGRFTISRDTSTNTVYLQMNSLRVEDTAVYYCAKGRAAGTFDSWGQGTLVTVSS
VL: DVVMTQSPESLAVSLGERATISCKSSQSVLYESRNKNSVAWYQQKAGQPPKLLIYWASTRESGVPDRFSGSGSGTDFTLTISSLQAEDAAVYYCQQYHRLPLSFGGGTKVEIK

Substitutions are numbered in sequence along the VL above, starting at 1 (not Kabat).
Variants here have at most six changes.
The Kd shown is the geometric mean over detected replicates; a lower Kd is a better binder.
Where no diploid with the target was found in any replicate, the entry reads "no signal": below detection, most likely a poor binder, though not proof of it.
In the paper, a design with two or fewer of six values counts as a poor binder.
Background: pairings of all light chain designs with three empty control strains gave a value in 4% of cases (median 430 nM, 5th percentile 38 nM). Values in that range, when seen in few replicates, are hard to tell from nonspecific mating.
The range of this assay differs from that of the first round, and the authors advise against merging the two.

changes,group,Kd,replicates with signal
S25D+Y31T+S38N+T59H,Ctrl,49 nM,6/6
Q27I+V29Y+K36E+W56E+S62V,GP_HC,1.6 nM,6/6
V29K+Y31D,Ctrl,60 nM,4/6
R34Y+W56N,Ctrl,2.4 nM,6/6
K36C,Ctrl,280 nM,1/6
Q27E+V29Y+W56E+S103M,GP_HC,1.1 nM,6/6
S26F+S28E+V29H+S62A+Q96G+H98T,Ctrl,87 nM,1/6
K24H+S25L+W56N+E61L,GP_Gen,390 pM,6/6
V29W+R34V+K36V+T59H+R99S,Ctrl,35 nM,6/6
S25V+R34T+W56Q,Ctrl,1.4 nM,6/6
K24S+S25L+S26M+W56H+T59L+S62E,GP_HC,910 pM,6/6
S25V+V29W+W56G+T59W,GP_HC,1.5 nM,6/6
S25L+S26Y+V29F+W56N+T59Q,GP_Gen,670 pM,6/6
S25Q+W56N+T59Q,GP_Gen,3.3 nM,6/6
Y31R+E32N+K36E+L102I,Ctrl,200 nM,1/6
S25W+R34E+K36C+A57T,Ctrl,19 nM,6/6
V29G+W56G+Q96W,Ctrl,4.0 nM,6/6
S25V+V29H+S38N+W56D,GP_Gen,270 pM,6/6
S25L+V29D+W56N+T59Q,GP_Gen,660 pM,6/6
V29G+K36H+N37P+W56Q+H98V+L102E,Ctrl,35 nM,4/6
V39L+S58M+R99V,Ctrl,32 nM,1/6
Q27C+Y31Q+S33D+K36S+W56N+S62L,GP_Gibbs,8.1 nM,6/6
S25L+S26E+L30P+W56E,GP_Gen,470 pM,6/6
W56H+Q96H,Ctrl,28 nM,6/6
S25L+V29G+W56H,GP_Gen,2.4 nM,6/6
S25Q+S28A+S33Q+S38N+W56E+A57G,GP_Gibbs,1.8 nM,6/6
N35G+W56Q+T59G,Ctrl,31 nM,1/6
S25L+S26P+S28Q+V29T+W56S+S62E,GP_HC,630 pM,6/6
S25F+V29Q+S38A+W56N,GP_Gen,260 pM,6/6
V29F+W56G+E61D,GP_HC,3.4 nM,6/6
K24F+S25L+S26R+V29T+V39L,Rand,1.0 µM,1/6
S25F+S26Y+W56N,GP_Gen,6.4 nM,6/6
V29W+S38P+W56G+T59Q,GP_HC,1.7 nM,6/6
E32H+W56D+E61N+S62H,Ctrl,26 nM,6/6
L30K+Y31M+K36A+W56D,GP_HC,2.5 nM,6/6
S25I+Q27W+Y31G+R34S+L100V,Ctrl,350 nM,3/6
Y31A+K36M,Ctrl,22 nM,6/6
S25V+W56N+S103Q,GP_Gen,950 pM,6/6
Y31L+R34E+W56H,Ctrl,1.0 nM,6/6
S26G+R34N+W56S+E61F,Ctrl,3.5 nM,6/6
S25L+S26R+S28Q+V29T+W56Q+S62E,GP_HC,75 nM,6/6
S25M+L30G+R34E+R60N+E61M,Ctrl,9.5 µM,2/6
S38C+W56D+S62E,Ctrl,930 pM,6/6
S25L+S38N+W56D+E61M,GP_Gen,230 pM,6/6
K36V+W56A+T59K+S103F,Ctrl,4.6 nM,6/6
S26L+V29Q+K36F+W56H+S62D,GP_HC,5.5 nM,6/6
S25L+S26P+V29E+W56N+S62V,GP_Gen,510 pM,6/6
S25Y+V29Y+L30M+W56G,GP_HC,1.4 nM,6/6
Q27I+Y31G+W56E,GP_HC,610 pM,6/6
L30Q+W56N,Ctrl,13 nM,6/6
S25L+S26Q+S38N+W56D,GP_Gen,500 pM,6/6
L30K+S58Y,Ctrl,no signal,0/6
V29D+L30Q+N35M+S62F,Ctrl,25 nM,2/6

3 of these entries, quoted again:

changes	group	Kd	replicates with signal
S25I+Q27W+Y31G+R34S+L100V	Ctrl	350 nM	3/6
E32H+W56D+E61N+S62H	Ctrl	26 nM	6/6
S38C+W56D+S62E	Ctrl	930 pM	6/6